# AlphaSeq binding of Ab-14 light chain variants to a spike HR2 peptide

Values reported by Li et al. 2023, doi:10.1038/s41467-023-39022-2 (FLAb copy).

The target is the same throughout: PDVDLGDISGINAS, from the HR2 region of SARS-CoV-2 spike.

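The parent was found by panning a naive human phage display library on the peptide. The variants were designed computationally from a first round of random CDR variants and then made and measured. Group labels follow the data file (Ctrl: baseline library sampled from a position-specific scoring matrix, with some repeated check sequences; Rand: our label for a block that the file lists under HC and that is probably the random mutants of the ten best first-round binders; En: ensemble of fine-tuned language models; GP: Gaussian process model; HC: hill climbing; Gen: genetic algorithm; Gibbs: Gibbs sampling; a sequence that several methods proposed may carry one label only). The assay is AlphaSeq: two haploid yeast populations carry antibody and antigen on their surface. Mating (16 h, 30 °C) was followed by selection of diploids and sequencing of their barcodes. Read counts were normalised to the haploid input and turned into Kd by a linear fit to BCL2-family pairs of known affinity, for each replicate. There are six technical replicates.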

The variants keep the heavy chain, the linker and the frameworks of Ab-14 (scFv order VH, a (GGGGS)3 linker, VL).
VH: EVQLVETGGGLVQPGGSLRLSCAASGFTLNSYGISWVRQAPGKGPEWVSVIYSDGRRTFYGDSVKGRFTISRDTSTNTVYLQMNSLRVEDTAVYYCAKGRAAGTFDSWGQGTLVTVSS
VL: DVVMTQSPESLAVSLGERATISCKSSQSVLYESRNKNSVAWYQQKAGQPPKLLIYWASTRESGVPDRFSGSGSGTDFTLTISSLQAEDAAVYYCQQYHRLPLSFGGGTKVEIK

Each variant is given by its three light chain CDRs, as the data file delimits them; those of the parent are KSSQSVLYESRNKNSVA, WASTRES, QQYHRLPLS. Affinities are written as log10 Kd with Kd in nM; a lower number is a better binder. The mean shown is taken over the replicates in which the pair was detected. "no signal" marks a missing value. The strain was present, yet no cells mated with the target were sequenced in any replicate, which points to weak or no binding. The parent sequence was in this pool as ten entries: three were never detected, three once, and four in most replicates, with averages from 0.34 to 2.37. Three control strains display no target. For all light chain designs, 4% of the pairings with them gave a signal, with a median of 2.64 and one signal in twenty below 1.59, so weak values seen in few replicates may be background. Also given: how often the same scFv was detected with the empty control strains. A sequence measured in both rounds can read differently, since the two assays cover different ranges. The authors' rule: three or more of the six replicates give a measured affinity, fewer mean a poor binder.

CDR-L1,CDR-L2,CDR-L3,group,mean log10 Kd (nM),seen in,control signals
MISQLMNMGTFAINSVA,QASIRNE,QQYDRLPLM,En_Gen,2.16,4 of 6,0 of 18
KLSMFAHVETGVKNNVA,QMETRES,QQYDHLPLS,En_Gen,0.47,6 of 6,1 of 18
KCSQHVLYESRNKNSVA,WASTRES,QQYHRLPLS,Ctrl,2.32,3 of 6,0 of 18
QLLMATMQGNYNRNSVA,HAQTRND,QSYHRLPLS,En_HC,1.37,6 of 6,2 of 18
KFSQSVWYESRNKNSVA,NASTRES,QQYHRLPLS,GP_Gen,-0.17,6 of 6,1 of 18
KASQSVLYESRPENSVA,WASTRES,QQYHRLPLS,Ctrl,no signal,0 of 6,0 of 18
KLMQWQLYESRNKNNVA,SASTREM,QQYHRLPLS,GP_Gibbs,0.70,6 of 6,1 of 18
KLEPFEEYESRNKNSVA,EASTRES,QQYHRLPLS,GP_Gibbs,-0.40,6 of 6,0 of 18
KLSQSVNMTGKNKNSVA,ELSFRED,QQYERLPLS,En_HC,1.19,6 of 6,1 of 18
TISQLMNMGQFAINSVA,QAEIRNA,QQYDRLPLM,En_Gen,no signal,0 of 6,0 of 18
KLRQVTEYESFYKNSVA,QTSTRES,QDYDRLPLS,En_HC,0.63,6 of 6,1 of 18
HITYGMMVHGRISKSIA,QAEERAK,QQYDRLPLA,En_Gen,0.81,6 of 6,1 of 18
IVSQLMIWGMHAKNSIA,EAETRIN,QQYDRLPLF,En_Gen,2.11,4 of 6,0 of 18
KMSQSVDYESRNKNSVA,DASTRES,QQYHRLPLS,GP_Gen,-0.12,6 of 6,0 of 18
KLEQSVLYESRNKNSVA,NASTRES,QQYHRLPLM,GP_Gen,-0.12,6 of 6,4 of 18
KLSQLFYKESLNKNNVA,EMTTRGS,QQYDRLPLS,En_HC,0.00,6 of 6,0 of 18
KSSQSRLYESQNKNSVA,WASTRES,QQYHRLPLS,Ctrl,1.54,4 of 6,1 of 18
KLPQSMLYESRNKNSVA,NASTRMS,QQYHRLPLS,GP_Gen,-0.22,6 of 6,2 of 18
KLLQEVTGHSRNRNSVA,HNSTRED,QQYDRLPLT,En_HC,no signal,0 of 6,0 of 18
KSSQSVLYESRNANSVA,WASTREN,QQYLRLPLS,Ctrl,2.11,5 of 6,0 of 18
KVSWSYLYESRNKNSVA,EASTREQ,QQYHRLPLS,GP_HC,0.11,6 of 6,0 of 18
KVSQSVLQESRMKNSVA,DASTRCS,QQYHRLPLE,GP_HC,-0.14,6 of 6,1 of 18
KIEWYSMDNRLTISAIA,EASTIYQ,QQYMHLPLS,En_Gibbs,-0.26,2 of 6,0 of 18
KLSQSVPYESRNKNSVA,EASTREQ,QQYHRLPLS,GP_Gen,-0.01,6 of 6,0 of 18
KLPMATMVESVSKNNVA,ELSTRGS,QQYHRLPLS,En_HC,0.61,6 of 6,2 of 18
KISMMYRFEQTASNNIA,EMTTRAE,QSYHRLPLS,En_HC,1.54,6 of 6,0 of 18
KSSQSVHEESRNKNSVA,NASTRES,QQYHRLPLS,Ctrl,0.70,6 of 6,2 of 18
KFYDQDPELNYMDNSIA,GMTVSVE,QQYWRLPLT,En_Gibbs,1.37,6 of 6,1 of 18
MLRFDITYGQKNWNAIA,ETSELGA,QQYMHLPLG,En_Gibbs,no signal,0 of 6,0 of 18
KSSQSFLYESRNKNSVA,GASTRES,QQSHRLTLS,Rand,-0.42,6 of 6,1 of 18

Second part, the sequence after the result:

mean log10 Kd (nM),seen in,control signals,CDR-L1,CDR-L2,CDR-L3,group
1.03,6 of 6,0 of 18,HVPNYTENFTSAKQNIA,DQSARTS,QQYDRLPLA,En_Gibbs
-0.45,6 of 6,2 of 18,KVSQSMLYESRNKNSVA,NASQRLS,QQYHRLPLS,GP_Gen
0.81,6 of 6,0 of 18,KISQSACMESRNKNSVA,NASKRES,QQYHRLPLS,GP_Gibbs
2.85,2 of 6,0 of 18,TLKMDKLPGQVNAYNVA,EAELVEN,QQYFHLPLY,En_Gibbs
2.91,1 of 6,0 of 18,KVSEFMKGLMSRQDSIA,DNTTRNS,QQYDRLPLS,En_Gen
0.74,6 of 6,0 of 18,KSSQSVLFESRNLNSIA,EASTRES,QQYHRMPLS,Ctrl
0.91,6 of 6,0 of 18,MISQLYNMGTFAINSVA,QASIRNE,QQYDRLPLQ,En_Gen
1.53,6 of 6,0 of 18,MVYSAVMAGGSTRNSIA,NAQMRPD,QQYHRLPLS,En_Gen
-0.36,6 of 6,0 of 18,KLSQSVLYESRMKNAVA,EASTRES,QQYHRLPLS,GP_Gen
no signal,0 of 6,0 of 18,KPSQSVLYESRNKNSVA,WASTCES,QQEHRLPLS,Ctrl
0.20,6 of 6,1 of 18,TISQSAQEESHNKNSVA,DLSVRGS,QQYHRLPLS,En_HC
1.43,4 of 6,0 of 18,KSSQNVLYDSRSRNSVA,WASTRES,QQYHRLPLS,Ctrl
-0.24,6 of 6,0 of 18,KLMTSDLYESRMVNSVA,EASTRMD,QQYHRLPLS,GP_Gibbs
1.39,6 of 6,4 of 18,SLHMMPMVGYALNANVA,NASQLFS,QHYFRLPLT,En_Gibbs
1.92,3 of 6,2 of 18,KCSQSVLYESRNVNSVA,WASTRES,QQYHRFPLS,Ctrl
no signal,0 of 6,0 of 18,MISESVMYEQRNRNSVA,DNSTRED,QCYDRLPLS,En_HC
0.77,6 of 6,1 of 18,KLSFSWWMESRNKNNVA,HASKRES,QQYHRLPLS,GP_Gibbs
-0.11,6 of 6,0 of 18,KLSQSVLQESRNKNSVA,DASTRES,QQYHRLPLS,GP_HC
0.69,6 of 6,0 of 18,SISMLLNFESKMGNNVA,QMETRVN,QQYDRLPLT,En_Gen
0.03,6 of 6,3 of 18,HVSPSWLYESRNKNSVA,NASTRES,QQYHRLPLS,GP_HC
0.07,6 of 6,1 of 18,KSQQSQLYESRNKNSVA,HASTRED,QQYHRLPLS,GP_HC
1.57,6 of 6,0 of 18,MISQLYNMGQFAINSVA,QASERVN,QQYDRLPLM,En_Gen
0.93,6 of 6,0 of 18,KSLQSVLYESRNFNSVA,HASQRED,QQYHRLPLS,GP_HC
0.99,6 of 6,0 of 18,KVQEMMAFLSSNRNNVA,DNSTRGS,QQYHRLPLS,En_HC
0.06,6 of 6,0 of 18,KLSPSELYESRNKNSVA,NASTRES,QQYHRLPLS,GP_Gen
1.53,6 of 6,2 of 18,KLRLHNLDFYEQENSIA,GVSNRAH,QQYYRLPLN,En_Gibbs
0.70,6 of 6,2 of 18,KLAQVTGYESYVRNSVA,QMSTRAE,QDYNRLPLS,En_HC
-0.11,6 of 6,1 of 18,KVQQSVLYESRNKNSVA,NASTRSS,QQYHRLPLS,GP_Gen
0.34,6 of 6,0 of 18,HISQMWMLESRNKNNVA,EESTRND,QSYFRLPLS,En_HC
1.26,6 of 6,0 of 18,SLAYTQHFGQSGGSAVA,EVQMREQ,QQYFRLPLG,En_Gibbs
0.53,6 of 6,0 of 18,KLQQLMLYESRMKNNVA,NASQRWS,QQYHRLPLS,GP_Gibbs

The 4 strongest on average among those seen in every replicate, once more:

{"CDR-L1": "KVSQSMLYESRNKNSVA", "CDR-L2": "NASQRLS", "CDR-L3": "QQYHRLPLS", "group": "GP_Gen", "mean log10 Kd (nM)": "-0.45", "seen in": "6 of 6", "control signals": "2 of 18"}
{"CDR-L1": "KSSQSFLYESRNKNSVA", "CDR-L2": "GASTRES", "CDR-L3": "QQSHRLTLS", "group": "Rand", "mean log10 Kd (nM)": "-0.42", "seen in": "6 of 6", "control signals": "1 of 18"}
{"CDR-L1": "KLEPFEEYESRNKNSVA", "CDR-L2": "EASTRES", "CDR-L3": "QQYHRLPLS", "group": "GP_Gibbs", "mean log10 Kd (nM)": "-0.40", "seen in": "6 of 6", "control signals": "0 of 18"}
{"CDR-L1": "KLSQSVLYESRMKNAVA", "CDR-L2": "EASTRES", "CDR-L3": "QQYHRLPLS", "group": "GP_Gen", "mean log10 Kd (nM)": "-0.36", "seen in": "6 of 6", "control signals": "0 of 18"}